Values of other authors in publication PMC8583936, “Machine Learning Assisted Approach for Finding Novel High Activity Agonists of Human Ectopic Olfactory Receptors” (International Journal of Molecular Sciences, 2021).

Chains of the proteins cited; added tags and fusions are not shown. Lines headed by an entry give the natural chain unless they say otherwise; changes in a name come on top.
UniProt Q9P1Q5: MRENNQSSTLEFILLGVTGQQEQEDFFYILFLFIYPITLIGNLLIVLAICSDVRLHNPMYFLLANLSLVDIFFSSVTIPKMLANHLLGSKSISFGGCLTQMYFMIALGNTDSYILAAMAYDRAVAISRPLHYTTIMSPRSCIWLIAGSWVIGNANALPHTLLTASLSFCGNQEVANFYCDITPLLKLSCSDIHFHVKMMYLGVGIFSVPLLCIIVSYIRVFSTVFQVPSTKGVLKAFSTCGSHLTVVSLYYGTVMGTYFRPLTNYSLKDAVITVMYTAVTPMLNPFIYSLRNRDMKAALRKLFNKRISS

Biological target: OR1A1 (Homo sapiens, UniProt Q9P1Q5)
Conditions: Table S1; ref Supplement references [1]-[9]; cited from earlier work

Substance | Class (agonist / non-agonist / conflicting info.) for OR1A1
Musk xylol | Agonist
P-Tolyl isobutyrate | Agonist
